Values quoted from earlier work in patent US20070123592A1, “Terephthalamide peptidomimetic compounds and methods” (YALE UNIVERSITY, priority 2004, published 2007).

Chains of the proteins cited; added tags and fusions are not shown.
UniProt Q07817, whole entry, species assumed: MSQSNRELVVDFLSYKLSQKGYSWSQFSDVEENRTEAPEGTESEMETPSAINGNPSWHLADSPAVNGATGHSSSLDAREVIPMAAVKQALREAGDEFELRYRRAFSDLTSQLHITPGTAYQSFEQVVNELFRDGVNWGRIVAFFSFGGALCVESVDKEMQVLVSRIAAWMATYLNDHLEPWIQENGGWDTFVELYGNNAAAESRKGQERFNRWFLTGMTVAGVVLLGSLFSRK

Biological target: T1, Bcl-xL/Bak complex (Homo sapiens, UniProt Q07817)
T1 construct: made in house
Settings: read-out: Kd of 16-mer Bak peptide for Bcl-xL, cited from earlier work

F1-GQVGRQLAIIGDDINR-CONH2 [16-mer Bak peptide, fluorescently labeled 16-mer Bak-peptide, N-terminus capped with fluorophore, C-terminus amidated]
Kd (known affinity used to convert IC50 to Ki): 0.12 µM
Kd (known affinity, saturation titration experiment): 0.12 µM

Like-named read-outs stand apart in the source and are kept apart here.
